Source: patent US10155743B2, “Glutarimide derivatives, use thereof, pharmaceutical composition based thereon and methods for producing glutarimide derivatives” (OBSCHESTVO S OGRANICHENNOI OTVETSTVENNOSTIYU …, priority 2013, dated 2018)
Like-named read-outs stand apart in the source and are kept apart here.

System: human virus hRSV adapted to the growth in mouse lungs
Test: animal or person
Type: in vivo
Conditions: for log reduction at 40 mg/kg: human respiratory syncytial virus, po
[1] = Ribavirin 40 mg/kg (reference preparation), M ± SD, n = 6
[2] = Ribavirin 40 mg/kg, lung suspension titrated in Hep-2 cell culture

## NC(=O)c1ncn([C@@H]2O[C@H](CO)[C@@H](O)[C@H]2O)n1 [Ribavirin, reference compound]
[1]
  Body weight of the mice after infection with hRSV, Day 5: 16.20 ± 0.24
  Body weight of the mice after infection with hRSV, Day 7: 17.23 ± 0.22
[2]
  hRSV viral titer in mouse lungs, Day 5, lg: 2.1 ± 0.12 lg
  hRSV viral titer in mouse lungs, Day 7, lg: 1.15 ± 0.12 lg
120 h, read-out: Suppression of the reproduction of hRSV virus in mouse lungs, Day 5, Δlg
  log reduction at 40 mg/kg: 2.4 ± 0.12
168 h, read-out: Suppression of the reproduction of hRSV virus in mouse lungs, Day 7, Δlg
  log reduction at 40 mg/kg: 2.4 ± 0.12
